Values quoted from earlier work, collected in patent publication US4749790A, “Process for preparing H2 receptor antagonist ascorbate compounds” (priority 1985, dated 1988).

How the values were obtained:
[1] = tested on: rats; conditions: cited from earlier work
[2] = tested on: male and female rats; conditions: 0.5 mM solution, two years; cited from earlier work

nitrosocimetidine
LD50 [1]: 1800 to 1900 mg/kg

CN(N=O)C(=N)N[N+](=O)[O-]
rats that developed adenomas and adenocarcinomas (glandular stomach) [2]: ≥ 45% | LD50 [1]: 80 to 100 mg/kg
